PubChem BioAssay (Tox21)
Only a part is listed here, and it is no random draw. Records with an inconclusive call do not appear. Where a call stands in place of a potency, no number is given. Active and inactive are the calls of the source. The call rests on the fitted dose curve; in most records, active means well fitted activation curve with a large enough effect in the repeat runs; inconclusive means weak or mixed curves; inactive means no such curve, though single readings can be large or run the other way.

Sequences of proteins named here, by UniProt entry; tags and fusion partners are left off.
UniProt O75469, whole entry: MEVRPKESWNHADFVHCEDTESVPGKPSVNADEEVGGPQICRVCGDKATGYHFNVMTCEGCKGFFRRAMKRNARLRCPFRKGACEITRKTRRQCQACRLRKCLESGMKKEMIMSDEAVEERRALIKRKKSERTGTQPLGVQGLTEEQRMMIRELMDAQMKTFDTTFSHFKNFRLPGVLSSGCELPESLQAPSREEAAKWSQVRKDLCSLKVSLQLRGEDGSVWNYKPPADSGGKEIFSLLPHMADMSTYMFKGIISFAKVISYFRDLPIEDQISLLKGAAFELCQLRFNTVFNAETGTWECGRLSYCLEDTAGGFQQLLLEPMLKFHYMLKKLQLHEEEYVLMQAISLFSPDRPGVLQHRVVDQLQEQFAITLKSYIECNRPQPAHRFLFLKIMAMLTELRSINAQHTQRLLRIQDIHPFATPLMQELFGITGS

Each molecule was assayed against Nuclear receptor subfamily 1 group I member 2 (Homo sapiens) (UniProt O75469) (assay: Human pregnane X receptor (PXR) small molecule agonists, qHTS assay (AID 1346982; further: nearly all actives have a fitted effect of over 35% in size)). Conditions: PXR-Luc HepG2, CYP3A4 luciferase reporter, 24 h; series mostly up to 92.4 µM.
From the text: National Center for Advancing Translational Sciences [NCATS]
NIH Chemical Genomics Center [NCGC]
U.S. Environmental Protection Agency [EPA]
National Institutes of Environmental Health Sciences [NIEHS]
National Toxicology Program [NTP]
The human pregnane X receptor (hPXR) regulates the expression of several drug metabolizing enzymes and induction of these proteins is a major mechanism for developing drug resistance in cancer. One such key enzyme catalyzing the drug metabolism is cytochrome P450 3A4 (CYP3A4). Changes in CYP3A4 expression affect drug metabolism, thereby reducing the therapeutic efficacy and altering toxicological response to a drug and which finally causes adverse drug interaction. To screen Tox21 libraries for compounds that activate hPXR-mediated CYP3A4 gene expression, PXR-Luc HepG2 cells were used.
PXR-Luc HepG2 cells were dispensed at 2,000 per well in 5uL of assay medium containing 5% charcoal-stripped FBS into white solid bottom 1536-well plates (Corning Life Sciences, Corning, NY) using a Multidrop Combi (Thermo Scientific, Waltham, MA) dispenser. The assay plates were incubated at 37 C and 5% CO2 for 5hr, and then 23nL of compounds dissolved in DMSO and positive control were transferred using a Pintool station (Wako, San Diego, CA). The assay plates were incubated at 37C and 5% CO2 for 24hr. For luciferase read, 4uL of ONE-Glo reagent (Promega Corporation, Madison, WI) was added to each well of the assay plates using Flying Reagent Dispenser (FRD, Aurora Discovery, San Diego, CA) and incubated the assay plates at room temperature for 30min. The luminescence signal was quantified using a ViewLux plate reader (Perkin Elmer, Shelton, CT).
Potency means the concentration at half of the fitted maximal effect.

| Compound | Potency |
| --- | --- |
| COP(C)(=O)OC | inactive |
| N=C(N)N[N+](=O)[O-] | inactive |
| Nc1cc([N+](=O)[O-])cc([N+](=O)[O-])c1O | inactive |
| CC(C)OP(C)(=O)OC(C)C | inactive |
| Cc1c([N+](=O)[O-])cccc1[N+](=O)[O-] | inactive |
| CCOP(=O)(CC)Oc1ccc([N+](=O)[O-])cc1 (configuration not stated) | inactive |
| CN(C)CCCl | inactive |
| Cc1ccc([N+](=O)[O-])c([N+](=O)[O-])c1 | inactive |
| CCOP(=O)(CC)OCC | inactive |
| [NH4+].[O-][Cl+3]([O-])([O-])[O-] | inactive |
| Cc1cccc([N+](=O)[O-])c1[N+](=O)[O-] | active: 45.8 µM |
| N#CBr | inactive |
| O=[N+]([O-])[O-].[NH4+] | inactive |
| C/C1=C2N=C(/C=C3N=C(/C(C)=C4\[N-][C@@](C)([C@@H]5N=C1[C@](C)(CCC(=O)NC[C@@H](C)OP(=O)([O-])O[C@H]1[C@@H](O)[C@@H](n6cnc7cc(C)c(C)cc76)O[C@@H]1CO)[C@H]5CC(N)=O)[C@@](C)(CC(N)=O)[C@@H]4CCC(N)=O)[C@@](C)(CC(N)=O)[C@@H]\3CCC(N)=O)C(C)(C)[C@@H]/2CCC(N)=O.[C-]#N.[Co+3] | inactive |
| CP(=O)(O)OCCC[Si](O)(O)O | inactive |
| CC(C)N(CCO)C(C)C | inactive |
| OCCSCCO | inactive |
